{
  "source": "paper PMC3899824",
  "about": "(Investigational new drugs, 2013)",
  "tested_on": "tubulin",
  "experiment": "Cell-free tubulin polymerization assay",
  "assay_type": "biochemical",
  "settings": "5 μM, 60m at 340 nm",
  "data": [
    {"smiles": "COc1cc2c(c(OC)c1OC)-c1ccc(OC)c(=O)cc1[C@@H](NC(C)=O)CC2", "note": "[colchicine]", "values": [
      {"measurement": "effect on tubulin polymerization", "result": "prevents microtubule polymerization"}
    ]}
  ]
}
